Laboratory results published in ChEMBL document CHEMBL1140305, “Three-dimensional quantitative structure-activity relationship analyses of beta-lactam antibiotics and tripeptides as substrates of the mammalian H+/peptide cotransporter PEPT1” (J Med Chem, 2005).
pKi: −log10 of the molar value.

target: T1, Solute carrier family 15 member 1 (Homo sapiens, UniProt P46059); test: Binding affinity against membrane transport protein PEPT1 in human Caco-2 cells; format: cell-based
T1 sequence (P46059 whole entry): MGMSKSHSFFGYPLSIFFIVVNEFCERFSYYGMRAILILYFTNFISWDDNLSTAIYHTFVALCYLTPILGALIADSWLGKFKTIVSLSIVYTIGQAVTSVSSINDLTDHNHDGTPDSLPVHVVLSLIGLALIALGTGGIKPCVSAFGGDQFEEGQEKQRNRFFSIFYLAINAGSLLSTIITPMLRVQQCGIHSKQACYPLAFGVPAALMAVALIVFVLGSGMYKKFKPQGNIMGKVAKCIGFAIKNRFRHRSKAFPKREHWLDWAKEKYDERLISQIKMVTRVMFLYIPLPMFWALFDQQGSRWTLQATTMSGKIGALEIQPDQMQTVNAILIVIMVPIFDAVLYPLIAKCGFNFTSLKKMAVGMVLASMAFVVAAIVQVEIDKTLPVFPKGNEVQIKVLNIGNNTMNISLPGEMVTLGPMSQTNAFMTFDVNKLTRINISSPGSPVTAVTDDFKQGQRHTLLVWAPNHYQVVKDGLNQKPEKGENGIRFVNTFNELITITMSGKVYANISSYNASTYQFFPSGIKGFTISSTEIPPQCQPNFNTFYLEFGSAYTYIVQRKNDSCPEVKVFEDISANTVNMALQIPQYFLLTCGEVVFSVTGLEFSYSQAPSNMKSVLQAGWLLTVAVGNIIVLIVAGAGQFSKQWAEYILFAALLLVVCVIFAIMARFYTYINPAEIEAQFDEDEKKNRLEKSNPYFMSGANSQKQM

pKi | SMILES
3.96 | C[C@H](N)C(=O)N[C@@H](Cc1ccccc1)C(=O)N1CCC[C@H]1C(=O)O
4.00 | CC(C)[C@H](N)C(=O)N1CCC[C@H]1C(=O)N1CCC[C@H]1C(=O)O
3.55 | CC[C@H](C)[C@H](N)C(=O)N1CCC[C@H]1C(=O)N1CCC[C@H]1C(=O)O
3.77 | CC[C@H](C)[C@H](NC(=O)[C@@H]1CCCN1C(=O)[C@@H](N)CO)C(=O)O
